Our source for the activation values is PubChem BioAssay AID504326 (The Scripps Research Institute Molecular Screening Center, 2011).

Protein sequences, listed by entry. Tags and fused reporters are not part of them.
UniProt P35372, whole entry, looked up: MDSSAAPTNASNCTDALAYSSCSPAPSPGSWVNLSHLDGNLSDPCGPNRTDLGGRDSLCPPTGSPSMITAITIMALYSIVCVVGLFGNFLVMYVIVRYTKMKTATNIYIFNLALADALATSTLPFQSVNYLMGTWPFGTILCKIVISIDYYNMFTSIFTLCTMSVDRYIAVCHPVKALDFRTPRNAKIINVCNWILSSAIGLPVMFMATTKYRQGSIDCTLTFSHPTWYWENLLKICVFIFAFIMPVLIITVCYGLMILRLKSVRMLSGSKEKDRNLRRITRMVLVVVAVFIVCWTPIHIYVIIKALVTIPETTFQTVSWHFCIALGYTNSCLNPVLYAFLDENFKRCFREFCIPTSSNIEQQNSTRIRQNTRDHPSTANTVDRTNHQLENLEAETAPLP
UniProt P41143, whole entry, looked up: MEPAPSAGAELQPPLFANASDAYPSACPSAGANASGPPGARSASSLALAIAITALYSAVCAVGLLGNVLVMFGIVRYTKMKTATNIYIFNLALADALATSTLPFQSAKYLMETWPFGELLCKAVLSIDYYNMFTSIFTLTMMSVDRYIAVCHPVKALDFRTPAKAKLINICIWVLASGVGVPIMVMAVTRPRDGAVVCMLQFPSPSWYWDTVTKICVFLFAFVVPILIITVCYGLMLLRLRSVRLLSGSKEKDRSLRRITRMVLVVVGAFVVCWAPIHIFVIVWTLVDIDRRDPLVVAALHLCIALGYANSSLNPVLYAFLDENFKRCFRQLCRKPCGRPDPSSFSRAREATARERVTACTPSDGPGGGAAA

The list shows a part of the results, in another mix than the full data. The source made the active and inactive calls. No stated cut-off is given here; in the data, active means activation above about 18%; inactive means the rest.

This assay addresses Mu-type opioid receptor (Homo sapiens) + Delta-type opioid receptor (Homo sapiens) (UniProt P35372+P41143). Kind of assay: inducers of mu-delta opioid receptor heterodimers – cell-based, luminescence, primary screen (AID 504326).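 Further: 0% = vehicle-treated cells and 100% = reference agonist.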 Conditions: cells, OPRM1-OPRD1 heterodimerization, at 9.3 µM, hits give high values.
`CCOC(=O)CSc1nc2ccccc2n1CC(=O)N1CCN(c2ccccc2)CC1`: the activation was inactive: -3.11%. Take `c1ccc(CN2CCC3(CC2)Nc2ccccc2CO3)cc1`: the activation is inactive: 1.59%. As for `Cn1c(=O)c2c(ncn2CC(=O)N2CCN(c3ccccc3F)CC2)n(C)c1=O`, the activation is inactive: -2.6%. Consider `N#CCC(=O)N/N=C\c1cc(Br)ccc1OC/C=C/c1ccccc1`, for which the activation is inactive: -0.3%.

In the case of `Cc1ccc(SCc2nc3ccccc3n2CC(=O)Nc2ccccc2)cc1`, the activation was inactive: 0.96%. As for `Cc1ccc2c(c1)C1CN(C)CCC1N2S(=O)(=O)c1ccc(Oc2ccc([N+](=O)[O-])cc2)cc1` (stereo not drawn), the figure is inactive: 1.95%. Take `COc1cc(NC(=O)Cn2cnc3c(SC)nc(N)nc32)cc(OC)c1OC`: the activation is inactive: 1.19%. As for `Cc1cc(NC(=O)CSc2nc3ccccc3n2CC(=O)N2CC(C)CC(C)C2)no1` (stereo not drawn), the activation was inactive: -0.57%. For the compound `Cn1c(=O)c2c(nc(Cl)n2CC(=O)NC2(C#N)CCCCC2)n(C)c1=O`, the activation was inactive: -1.42%. As for `O=C(Cn1c(NCCO)nc2ccccc21)N1CCN(Cc2ccccc2)CC1`, the figure is inactive: -1.31%; as for `Cn1c(=O)c2c(ncn2CC(=O)Nc2ccccc2)n(C)c1=O`, inactive: 0.08%; as for `Nc1ccccc1CNc1nc(NCCO)nc2c1ncn2CCN1CCOCC1`, inactive: 1.46%. To `NC(=O)CC(NC(=O)c1ccccc1)c1ccc(NC2CCN(Cc3ccccc3)CC2)c([N+](=O)[O-])c1` (stereo not drawn) belongs inactive: -1.26%; to `N=c1n(CCN2CCCCC2)c2ccccc2n1CC(O)c1ccco1` (stereo not drawn), inactive: -3.69%; to `CSc1nc(N)nc2c1ncn2CC(=O)N1CCN(c2ccccn2)CC1`, inactive: -1.91%.

As for `O=S(=O)(Cc1ccccc1)N1CCn2c(nc3ccccc32)C1`, the activation was inactive: -1.3%. As to `CCN(CC)S(=O)(=O)c1ccc(NC2CCN(Cc3ccccc3)CC2)nc1`, the activation was inactive: 1.22%. As for `CC1CCCN(Cc2nc3c(c(=O)n(C)c(=O)n3C)n2CC(N)=O)C1` (stereo not drawn), the figure is inactive: -4.5%; as for `CN1CCN(c2nc3c(c(=O)n(C)c(=O)n3C)n2CC(N)=O)CC1`, inactive: 1.65%; as for `COc1ccc(Cc2nc3ccccc3n2CC(=O)N/N=C/c2ccc(O)cc2)cc1OC`, inactive: -1.03%. `COC(=O)C1(C)COP(=O)(Nc2ccccc2)OC1` (stereo not drawn): the activation was inactive: -2.64%.

As for `O=[N+]([O-])c1cccc(NC2=NCC(CBr)S2)c1` (stereo not drawn), the activation was inactive: -3.81%.

Consider `CCOC(=O)N1CCN(c2c(NC3CCN(Cc4ccccc4)CC3)c(=O)c2=O)CC1`, for which the activation is inactive: -0.07%. For the compound `CC(C)Sc1nc2ccccc2n1CC(N)=O`, the activation was inactive: -2.6%. For the compound `O=C(Cn1cnc2ccccc21)N1CCN(S(=O)(=O)c2ccccc2)CC1`, the activation is inactive: -1.77%. For the compound `CN(C)C1(c2nnnn2-c2ccc(Cl)cc2)CCCCC1`, the activation is inactive: 1.59%. To `Cc1nn(CC(=O)Nc2ccc3c(c2)nc2n3CCN(C3CCCCC3)C2)c(=O)c2ccccc12` belongs inactive: -1.23%; to `Cc1noc(C)c1S(=O)(=O)N(CC(=O)N1CCn2c1nc1ccccc12)c1ccc(C(C)C)cc1`, inactive: -0.09%; to `O=[N+]([O-])c1ccc(NC2CCN(Cc3ccccc3)CC2)c2ccncc12`, inactive: 3.08%. `O=C(c1ccccc1Br)N1CCn2c1nc1ccccc12`: the activation was inactive: -2.37%.

As to `Cc1cccc(NC(=O)Cn2c(/C=C/c3ccccc3)nc3ccccc32)c1`, the activation is inactive: 0.37%.

For the compound `O=C(O)CNc1ccc([As](=O)(O)O)cc1`, the activation was inactive: -2.29%.

`COC(=O)c1ccc(N2C(=O)CC(N3CCC(n4c(=O)[nH]c5ccccc54)CC3)C2=O)cc1` (stereo not drawn): the activation is inactive: -1.01%.

`CCc1nc2ccccc2n1CC(=O)NC1CCS(=O)(=O)C1` (stereo not drawn): the activation was inactive: -1.97%. Regarding `COc1cccc(NC(=O)Cn2c(-c3cncs3)nc3ccccc32)c1`, the activation is inactive: -2.12%.

For `COc1cccc(CNC(=O)CCNC(=O)N2CCn3c2nc2ccccc23)c1`, the activation is inactive: -2.2%.

Consider `O=C1CCC(=O)N1c1ccc(NC2CCN(Cc3ccccc3)CC2)c([N+](=O)[O-])c1`, for which the activation is inactive: -2.85%. To `CSCC[C@H](NC(=O)N1CCn2c1nc1ccccc12)C(=O)N[C@@H](C(=O)O)c1ccccc1` belongs inactive: -1.69%; to `CC(C)(C)C(=O)NC(Sc1ccncn1)C(Cl)(Cl)Cl` (stereo not drawn), inactive: 0.29%; to `COc1ccc(CN(C)C(=O)Cn2cnc3c(NCc4ccccc4)ncnc32)cc1OC`, inactive: -2.42%. With `CCN(Cc1ccccc1)C(=O)Cn1c(C(C)O)nc2ccccc21` (stereo not drawn), the activation was inactive: -2.56%. As for `Cn1c(=O)c2c(ncn2CC(=O)NC(C)(C)C)n(C)c1=O`, the figure is inactive: -1.34%; as for `CCCCc1nc2ccccc2n1CC(=O)NN`, inactive: -1.14%. As for `c1ccc(CN2CCC(Nc3ncnc4sccc34)CC2)cc1`, the activation is inactive: -3.02%. Consider `O=[N+]([O-])c1ccc2c(c1)nc1n2CCN(CC2CCCO2)C1` (stereo not drawn), for which the activation was inactive: -1.13%. Regarding `CN(C)C(=O)Cn1c(=O)n(S(=O)(=O)c2ccccc2)c2ccccc21`, the activation was inactive: -0.05%.

`C/C(=N\NC(=O)Cn1cnc2ccccc21)c1cccs1`: the activation is inactive: -1.39%. On to `Cn1c(=O)c2c(ncn2CC(=O)Nc2ccc(N3CCOCC3)cc2)n(C)c1=O`, for which the activation is inactive: -2.56%. `CSc1nc2ccccc2n1CC(=O)N1CCCCC1`: the activation was inactive: -2.48%. Take `CC(C)OC(=O)c1ccc(NC(=O)Cn2c(-c3nonc3N)nc3ccccc32)cc1`: the activation is inactive: 0.97%. Regarding `C/C(=N\NC(=O)Cn1c(-c2ccccn2)nc2ccccc21)c1ccccc1`, the activation is inactive: -6.32%. As to `Cc1ccc2c(c1)C1CN(C)CCC1N2C(=O)Nc1cccc(C(F)(F)F)c1` (stereo not drawn), the activation was inactive: 6.39%. Take `CC(C)(C)NC(=O)Cn1c(SCC(=O)N2CCCCCC2)nc2ccccc21`: the activation is inactive: -2%. Take `CSCC[C@H](NC(=O)N1CCn2c1nc1ccccc12)C(=O)NCc1ccco1`: the activation was inactive: 0.98%. For `O=[N+]([O-])c1ncn(CCn2ncnc2[N+](=O)[O-])n1`, the activation is inactive: 1.09%. As for `CCCn1c(=O)[nH]c(=O)c2c1nc(-c1ccc(OC(F)F)cc1)n2CCN1CCOCC1`, the figure is inactive: -1.21%; as for `Cn1c(=O)c2ncn(CC(=O)Nc3nc(-c4ccc(Cl)cc4)cs3)c2n(C)c1=O`, inactive: -0.59%; as for `CCOc1ccc(NC(=O)CN(C)C(=O)Cn2cnc3c2c(=O)n(C)c(=O)n3C)cc1OCC`, inactive: -1.13%. As for `CC(C)C[C@H](NC(=O)N1CCn2c1nc1ccccc12)C(=O)NCC1CCCO1` (stereo partly drawn), the activation is inactive: -2.68%. To `Cn1c(=O)[nH]c(=O)c2c1nc(SCc1ccccc1Cl)n2CC(N)=O` belongs inactive: -3.34%; to `COc1ccc(CNC(=O)Cn2cnc3c(=O)n(C)c(=O)n(C)c32)cc1`, inactive: -1.56%. To `Cc1ccc2c(c1)[C@@H]1CN(C)CC[C@@H]1N2S(=O)(=O)c1ccc(F)cc1` belongs inactive: -0.85%; to `COc1ccccc1NS(=O)(=O)c1cc(NC(=O)Cn2cnc3c2c(=O)n(C)c(=O)n3C)ccc1C`, inactive: 0.72%. In the case of `O=C(c1ccco1)N1CCn2c1nc1ccccc12`, the activation was inactive: -5.04%. For `COc1ccc(Cc2nc3ccccc3n2CC(=O)N/N=C/c2ccccc2)cc1OC`, the activation is inactive: -0.26%. On to `O=C(Nc1cc([As](=O)(O)O)ccc1O)c1ccccc1`, for which the activation was inactive: -1.4%. With `Cn1c(=O)n(CC(=O)Nc2ccccc2)c2ccccc21`, the activation was inactive: -1.58%. As for `Cc1cc(C)c(CN2CCN(C(=O)Cn3cnc4c(OCc5ccccc5)ncnc43)CC2)c(C)c1`, the figure is inactive: 6.2%. On to `C=CCc1cccc(CNc2nc3ccccc3n2CCN2CCOCC2)c1O`, for which the activation is inactive: -2.76%. `COc1ccc(CNc2nc3ccccc3n2CCN2CCCCC2)c(OC)c1`: the activation was inactive: -2.57%.

Turning to `c1ccc(CN2CCC3(CC2)Nc2ccccc2S3)cc1`, the activation was inactive: 4.13%.

As for `COc1ccccc1CNc1nc2ccccc2n1CCN1CCCCC1`, the activation was inactive: 0.48%. As to `COc1ccc(N2CCn3c2nc2c3c(=O)n(CCCc3ccccc3)c(=O)n2C)c(OC)c1`, the activation is inactive: 1.92%. As for `CCSc1nnc(NC(=O)Cn2cnc3c2c(=O)n(C)c(=O)n3C)s1`, the activation is inactive: -2.99%.

Consider `Cn1c(=O)[nH]c(=O)c2c1nc(CN1CCN(c3ccccc3F)CC1)n2CC(N)=O`, for which the activation is inactive: -1.67%.

In the case of `Cc1nc2cc(C(F)(F)F)ccc2n1C1CCN(Cc2nnnn2Cc2ccc3c(c2)OCO3)CC1`, the activation was inactive: -1.26%.

Take `CC1CN(Cc2nc3c(c(=O)[nH]c(=O)n3C)n2CC(N)=O)CC(C)O1` (stereo not drawn): the activation is inactive: -0.79%. Consider `Cc1ccc(CNC(=O)CCNC(=O)N2CCn3c2nc2ccccc23)cc1`, for which the activation was inactive: -2.41%.

For `Cc1ccc(-c2csc(N3CCN(c4cc5c(cc4Cl)nc(C)n5CCN4CCCCC4)CC3)n2)cc1`, the activation is inactive: 0.88%.

Take `Cc1cc(NC(=O)CSc2nc3ccccc3n2CC(=O)N2CCCCC2)no1`: the activation is inactive: -0.41%. As for `O=C(CCCN1CCC2(CC1)C(=O)NCN2c1ccccc1)c1ccc(F)cc1`, the figure is inactive: 2.34%.

As to `Cn1c(=O)c2c(nc(CN3CCN(c4ccc(F)cc4)CC3)n2CCN2CCOCC2)n(C)c1=O`, the activation is inactive: -1.88%. `COc1cc(NC(=O)Cn2c(-c3cncs3)nc3ccccc32)cc(OC)c1OC`: the activation is inactive: -1.58%.

Take `COC(=O)C[C@H](NC(=O)Cn1cnc2c(SC)nc(N)nc21)C(=O)OC`: the activation is inactive: -2.78%. With `Cn1c(=O)c2c(nc(NCCc3ccccc3)n2CC(=O)NCCc2ccccc2)n(C)c1=O`, the activation was inactive: 0.14%. To `COc1ccc(Cc2nnc(NC(=O)Cn3cnc4c3c(=O)n(C)c(=O)n4C)s2)cc1` belongs inactive: -1.56%; to `CCN(CC)CCn1c(=N)n(CC(O)c2ccco2)c2ccccc21` (stereo not drawn), inactive: -1.41%.

Regarding `CC(C)Oc1cccnc1N(C)C1CCN(Cc2ccccc2)CC1`, the activation was inactive: -0.87%.
